Target: Btk (Homo sapiens (Human), UniProt Q06187)
Test: Bruton's Tyrosine Kinase (Btk) inhibition assay (FRET BTK)
Format: biochemical

Chains of the proteins cited; added tags and fusions are not shown. Lines headed by an entry give the natural chain unless they say otherwise; changes in a name come on top.
UniProt Q06187: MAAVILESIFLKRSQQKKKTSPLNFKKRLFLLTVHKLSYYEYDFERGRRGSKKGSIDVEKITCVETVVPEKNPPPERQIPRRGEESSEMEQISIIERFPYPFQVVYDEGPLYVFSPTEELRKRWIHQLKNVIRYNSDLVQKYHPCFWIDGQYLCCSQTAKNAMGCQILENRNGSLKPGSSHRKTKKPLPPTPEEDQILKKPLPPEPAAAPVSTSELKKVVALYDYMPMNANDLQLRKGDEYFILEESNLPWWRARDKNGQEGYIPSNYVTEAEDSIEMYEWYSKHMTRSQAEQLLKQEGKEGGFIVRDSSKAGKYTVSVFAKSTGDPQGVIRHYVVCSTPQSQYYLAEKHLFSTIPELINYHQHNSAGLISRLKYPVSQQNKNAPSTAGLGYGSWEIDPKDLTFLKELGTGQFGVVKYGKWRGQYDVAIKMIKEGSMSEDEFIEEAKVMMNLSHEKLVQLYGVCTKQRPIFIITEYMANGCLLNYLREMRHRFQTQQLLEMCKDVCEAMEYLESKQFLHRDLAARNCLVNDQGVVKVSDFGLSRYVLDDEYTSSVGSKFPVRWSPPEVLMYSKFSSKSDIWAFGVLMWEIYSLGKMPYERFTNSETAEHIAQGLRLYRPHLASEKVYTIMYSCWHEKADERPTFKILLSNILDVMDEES

Row | IC50 | SMILES
1 | 91.5 nM | CC(C)(C)c1cc(F)c2c(=O)n(-c3cccc(-n4cc(C(N)=O)c(Nc5ccc(C(C)(C)O)cc5)n4)c3CO)ncc2c1 [Compound I-22, 1-[3-(6-tert-Butyl-8-fluoro-1-oxo-1H-phthalazin-2-yl)-2-hydroxymethyl-phenyl]-3-[4-(1-hydroxy-1-methyl-ethyl)-phenylamino]-1H-pyrazole-4-carboxylic acid amide]
2 | 4.1 nM | CC(C)(C)c1cc(F)c2c(=O)n(-c3cccc(-n4cc(C(N)=O)c5ccccc54)c3CO)ncc2c1 [Compound I-17, 1-[3-(6-tert-Butyl-8-fluoro-1-oxo-1H-phthalazin-2-yl)-2-hydroxymethyl-phenyl]-1H-indole-3-carboxylic acid amide]
3 | 0.56 nM | CC(C)(C)c1ccc2c(=O)n(-c3cccc(-n4cc(C(N)=O)c(Nc5ccc(F)cn5)n4)c3CO)ncc2c1 [Compound I-35, 1-[3-(6-tert-Butyl-1-oxo-1H-phthalazin-2-yl)-2-hydroxymethyl-phenyl]-3-(5-fluoro-pyridin-2-ylamino)-1H-pyrazole-4-carboxylic acid amide]

— patent US8729078B2, “Inhibitors of bruton's tyrosine kinase” (Hoffmann-La Roche Inc., priority 2011, dated 2014)
